# Yeast mating assay 1: variants of the scFv Ab-14

Data: MIT Lincoln Laboratory AlphaSeq set, Engelhart et al. 2022, doi:10.1038/s41597-022-01779-4, as distributed in FLAb.

Target peptide (SARS-CoV-2 spike, HR2 region): PDVDLGDISGINAS

Each scFv is VH, the linker GGGGSGGGGSGGGGS, VL, as in the parent Ab-14, and differs from it in the CDRs of the light chain only.
VH: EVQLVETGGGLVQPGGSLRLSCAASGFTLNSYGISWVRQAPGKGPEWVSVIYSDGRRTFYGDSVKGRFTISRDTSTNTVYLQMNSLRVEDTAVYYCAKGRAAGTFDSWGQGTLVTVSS
VL: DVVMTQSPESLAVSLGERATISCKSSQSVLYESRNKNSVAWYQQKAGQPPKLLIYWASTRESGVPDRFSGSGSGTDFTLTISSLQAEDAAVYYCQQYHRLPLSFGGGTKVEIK

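Phage display of a naive human antibody library on the peptide gave the parent. AAYL50 was designed without a model: most single CDR substitutions and a random sample of double and triple ones. The assay is AlphaSeq: two haploid yeast populations carry antibody and antigen on their surface. Binding brings cells together so that they mate, and sequencing counts the barcode pairs among the diploids. Scores were corrected for input abundance and mapped to Kd with protein pairs of known affinity run in the same pool. There are three technical replicates.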

Variants are written as CDR1, CDR2 and CDR3 of the light chain (limits as in the source). Parent: KSSQSVLYESRNKNSVA, WASTRES, QQYHRLPLS.
The read-out is the apparent dissociation constant on a log10 scale (nM): the lower, the stronger.
A mean of the replicates is given; it leaves out those without a signal.
An entry "n.d." has no value in the source: the pair was not observed among the diploids in that replicate. This suggests poor binding but is not conclusive.

| CDR-L1 | CDR-L2 | CDR-L3 | log10 Kd (nM) by replicate | mean log10 Kd (nM) | empty controls |
|---|---|---|---|---|---|
| KSSQSVLYESRNKNSVA | WASERES | QQYHELPLT | 0.59 0.62 0.82 | 0.68 | 0 of 9 |
| KDSQSVLYESRNKVSVA | WASTTES | QQYHRLPLS | n.d. n.d. n.d. | n.d. | 0 of 9 |
| KSSQSVLYESRNKNSVA | WLSTEES | NQYHRLPLS | n.d. n.d. n.d. | n.d. | 0 of 9 |
| KSSQSVHYESRWKNSVA | WASTRES | QQYHRLPPS | n.d. n.d. n.d. | n.d. | 0 of 9 |
| KSHQSVLYESANKNSVA | WKSTRES | QQYHRLPLS | 2.31 2.66 2.64 | 2.54 | 1 of 9 (3.32) |
| KSSQSVLYESRMKNSVQ | WASTRES | QQYHTLPLS | n.d. n.d. n.d. | n.d. | 1 of 9 (5.09) |
| KSSQSVLYGSRNKNSVA | WASTRES | QQYHRLYLR | n.d. n.d. n.d. | n.d. | 0 of 9 |
| KSSQSVLYESRNKNSVG | WASTRES | QQYHRVPMS | n.d. n.d. 4.56 | 4.56 | 5 of 9 (4.70) |
| KSSQSVLYESRNKNSVA | GASCRES | QQYHRLPLR | 0.35 0.62 0.45 | 0.47 | 3 of 9 (4.08) |
| KLSQSVLYESRNKNSVA | WSSTRES | QQPHRLPLS | 3.39 3.23 3.88 | 3.50 | 3 of 9 (4.52) |
| KSSQSVLYELRNKNSVA | WASTRES | FQCHRLPLS | n.d. n.d. n.d. | n.d. | 0 of 9 |
| KSSQSVLFESRNKNRVA | WDSTRES | QQYHRLPLS | 1.55 n.d. 2.27 | 1.91 | 2 of 9 (3.57) |
| KSMQSVLWESRNKNSVA | WASTRES | QQNHRLPLS | 3.98 n.d. n.d. | 3.98 | 3 of 9 (3.85) |
| KSSQSVLAWSRNKNSVP | WASTRES | QQYHRLPLS | n.d. n.d. n.d. | n.d. | 0 of 9 |
| KSSQSVEYESRNKNSVA | PAETRES | QQYHRLPLS | 5.74 n.d. n.d. | 5.74 | 1 of 9 (4.42) |
| KSSQSVLYESRNKNSWA | WASTRES | NQYHGLPLS | 3.80 n.d. 3.89 | 3.84 | 4 of 9 (4.09) |
| KSSQSVLYNSRGKNSVA | WASTRES | QQYHRLPLS | n.d. n.d. n.d. | n.d. | 0 of 9 |
| KSSQSVLYESRWKNSVA | WASTVES | QQYHRLPLP | 4.66 n.d. n.d. | 4.66 | 2 of 9 (4.52) |
| KQSQSVLQESRNKNSVA | WISTRES | QQYHRLPLS | 2.50 3.69 n.d. | 3.10 | 1 of 9 (4.41) |
| KSSQSVFYESRNKNSVA | WASTGES | QQYHRLFLS | n.d. n.d. n.d. | n.d. | 3 of 9 (3.94) |
| KSSQSVLYEYRNKLSVA | WASARES | QQYHRLPLS | n.d. n.d. 5.67 | 5.67 | 2 of 9 (4.20) |
| KSSQSVLYESRNKNSVA | WAWTRES | QQYGALPLS | n.d. 3.41 5.22 | 4.31 | 3 of 9 (3.94) |
| KSSQSVLYESRNKNSVM | WASTRES | QQYTRLPDS | 4.60 n.d. n.d. | 4.60 | 0 of 9 |
| KSSQSVSYDSRNKNSVA | WASTRES | QQYHRLPLS | 0.36 0.67 0.47 | 0.50 | 0 of 9 |
| KSSQSVLYEKRNKNSVA | WASTRES | QQNHWLPLS | n.d. 4.81 4.39 | 4.60 | 0 of 9 |
| KSSQSVLYESRNKNSVA | CASGRES | QQYHRAPLS | 4.20 3.64 3.75 | 3.86 | 3 of 9 (4.53) |
| KSSQSVLYESRNKNTVA | HASTRVS | QQYHRLPLS | 0.54 0.94 0.74 | 0.74 | 1 of 9 (4.24) |
| KSSQSVLYESPNTNSVA | WASTRES | QQYHRLPLS | n.d. n.d. n.d. | n.d. | 0 of 9 |
| KSPQSVLDESRNKNSVM | WASTRES | QQYHRLPLS | n.d. n.d. n.d. | n.d. | 2 of 9 (3.55) |
| KSSQSVLYESRNKNDVA | WASTREG | QQHHRLPLS | 2.52 2.54 4.74 | 3.27 | 5 of 9 (4.11) |
| KSSQSNLYESRNKNSVM | WASTRES | QLYHRLPLS | n.d. n.d. n.d. | n.d. | 0 of 9 |
| KSSQSVLYESRNKNSVA | WASTPES | QQYHRLCLP | n.d. n.d. n.d. | n.d. | 0 of 9 |
| KSSQSVLYESRNKNHWA | WASTRES | QQYLRLPLS | 3.68 3.20 4.40 | 3.76 | 5 of 9 (4.67) |
| KSRQSVLYESRNKNSVA | WASTREF | GQYHRLPLS | 3.12 3.33 2.41 | 2.95 | 2 of 9 (5.03) |
| KSMQSALQESRNKNSVA | WASTRES | QQYHRLPLS | 0.66 1.04 1.10 | 0.93 | 1 of 9 (4.95) |
| KSSQSVLYESRNKNSVA | WASTRES | QQYHSLNRS | 1.38 1.78 1.68 | 1.62 | 0 of 9 |
| KSSQSVLYESMNKNSVA | WASTRES | QQYHRLPLS | 0.07 0.38 0.18 | 0.21 | 6 of 9 (4.48) |
| KSSQSVLYESRNFNSVA | QASTRES | QQYHRLPLR | 0.34 0.49 0.49 | 0.44 | 0 of 9 |
| KSSQSVLYESRNKNSVA | WASTRES | QQYHRAPLD | 0.49 0.87 0.89 | 0.75 | 3 of 9 (4.75) |
| KSSQTVLYESRNKNSVE | WASTRES | QQYHGLPLS | n.d. 3.71 5.20 | 4.45 | 7 of 9 (4.31) |
| KSSQSVCYESRNKNSKA | WASTRES | QQYGRLPLS | 3.68 5.61 4.56 | 4.62 | 6 of 9 (4.41) |
| KSSQSVLYESRNKKSVA | WAHTRES | QQYHRLPLS | n.d. n.d. n.d. | n.d. | 0 of 9 |
| KSSQSVLYESRNKNSVA | WISTQES | QLYHRLPLS | n.d. 4.23 n.d. | 4.23 | 3 of 9 (4.24) |

For reference, 3 entries of the list once more:

{"CDR-L1": "KSSQSVLAWSRNKNSVP", "CDR-L2": "WASTRES", "CDR-L3": "QQYHRLPLS", "log10 Kd (nM) by replicate": "n.d. n.d. n.d.", "mean log10 Kd (nM)": "n.d.", "empty controls": "0 of 9"}
{"CDR-L1": "KSSQSVLYNSRGKNSVA", "CDR-L2": "WASTRES", "CDR-L3": "QQYHRLPLS", "log10 Kd (nM) by replicate": "n.d. n.d. n.d.", "mean log10 Kd (nM)": "n.d.", "empty controls": "0 of 9"}
{"CDR-L1": "KSSQSVLYESRNKNTVA", "CDR-L2": "HASTRVS", "CDR-L3": "QQYHRLPLS", "log10 Kd (nM) by replicate": "0.54 0.94 0.74", "mean log10 Kd (nM)": "0.74", "empty controls": "1 of 9 (4.24)"}

Three control strains display no target. For library AAYL50, 18% of the pairings with them gave a signal, with a median of 4.19 and one signal in twenty below 2.99, so weak values seen in few replicates may be background. The control count says in how many pairings with the empty strains this scFv gave a signal, with their mean in brackets.